Among the data in article PMC6917733 (Scientific Reports, 2019) are Emax values, retold here.

In assay [1] the target is T1, human OTR (Homo sapiens, UniProt P30559).
T1 sequence (P30559 1-389): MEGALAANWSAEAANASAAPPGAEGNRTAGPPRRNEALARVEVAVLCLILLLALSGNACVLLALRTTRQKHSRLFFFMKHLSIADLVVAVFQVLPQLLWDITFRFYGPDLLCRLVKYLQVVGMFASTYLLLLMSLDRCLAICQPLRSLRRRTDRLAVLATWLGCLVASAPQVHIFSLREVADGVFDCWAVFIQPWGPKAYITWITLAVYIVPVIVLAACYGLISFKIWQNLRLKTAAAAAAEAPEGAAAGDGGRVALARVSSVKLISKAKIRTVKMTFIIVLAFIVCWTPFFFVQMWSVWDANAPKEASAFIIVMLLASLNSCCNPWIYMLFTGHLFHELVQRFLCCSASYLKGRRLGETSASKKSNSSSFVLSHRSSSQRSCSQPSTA
The assay is described as follows: β-arrestin-2 recruitment BRET at OTR.

For assay [2], the target named is T1, human OTR. The experiment in a line: IP1 accumulation (IP-One Gq assay), HEK293 cells expressing OTR.

For `CC[C@H](C)[C@@H]1NC(=O)[C@H](Cc2ccc(O)cc2)NC(=O)[C@@H](N)CSSC[C@@H](C(=O)N2CCC[C@H]2C(=O)N[C@@H](CC(C)C)C(=O)NCC(N)=O)NC(=O)[C@H](CC(N)=O)NC(=O)[C@H](CCC(N)=O)NC1=O` [OT, oxytocin, reference compound], the Emax at human OTR [1] and at human OTR [2] was 100% each time.
